Values quoted from earlier work as cited in patent US7833976B2, “Methods for treatment of tumors and metastases using a combination of anti-angiogenic and immuno therapies” (The Scripps Research Institute, priority 1999, dated 2010).

Conditions: treatment of B-cell non-Hodgkin's lymphoma

B1: IDEC-Y2B8: radioimmunotherapeutic that targets B-cells, for CD20(+) B-cell non-Hodgkin's lymphoma (conjugate, chains of the INN, looked up)
heavy: QAYLQQSGAELVRPGASVKMSCKASGYTFTSYNMHWVKQTPRQGLEWIGAIYPGNGDTSYNQKFKGKATLTVDKSSSTAYMQLSSLTSEDSAVYFCARVVYYSNSYWYFDVWGTGTTVTVSAPSVYPLAPVCGDTTGSSVTLGCLVKGYFPEPVTLTWNSGSLSSGVHTFPAVLQSDLYTLSSSVTVTSSTWPSQSITCNVAHPASSTKVDKKIEPRGPTIKPCPPCKCPAPNLLGGPSVFIFPPKIKDVLMISLSPIVTCVVVDVSEDDPDVQISWFVNNVEVHTAQTQTHREDYNSTLRVVSALPIQHQDWMSGKEFKCKVNNKDLPAPIERTISKPKGSVRAPQVYVLPPPEEEMTKKQVTLTCMVTDFMPEDIYVEWTNNGKTELNYKNTEPVLDSDGSYFMYSKLRVEKKNWVERNSYSCSVVHEGLHNHHTTKSFSR
light: QIVLSQSPAILSASPGEKVTMTCRASSSVSYMHWYQQKPGSSPKPWIYAPSNLASGVPARFSGSGSGTSYSLTISRVEAEDAATYYCQQWSFNPPTFGAGTKLELKRADAAPTVFIFPPSDEQLKSGTASVVCLLNNFYPREAKVQWKVDNALQSGNSQESVTEQDSKDSTYSLSSTLTLSKADYEKHKVYACEVTHQGLSSPVTKSFN
modifications: yttrium-90 tiuxetan
notes: radioimmunotherapeutic that targets B-cells, for CD20(+) B-cell non-Hodgkin's lymphoma
  maximum tolerated dose: 0.4 mCui/kg body weight
